From article PMC10354048 (Communications Chemistry, 2023)

The chains behind the UniProt entries cited, without tags or fusion partners. Residues count along the entry.
UniProt P06873, 106-384: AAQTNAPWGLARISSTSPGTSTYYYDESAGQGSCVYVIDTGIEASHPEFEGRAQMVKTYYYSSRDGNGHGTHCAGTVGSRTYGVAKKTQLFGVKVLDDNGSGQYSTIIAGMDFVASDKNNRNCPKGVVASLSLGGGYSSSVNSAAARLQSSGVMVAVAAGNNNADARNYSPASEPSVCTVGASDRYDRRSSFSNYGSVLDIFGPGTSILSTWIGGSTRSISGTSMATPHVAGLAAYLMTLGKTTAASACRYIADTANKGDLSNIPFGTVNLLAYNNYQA

Legend:
trypsin or chymotrypsin = conditions: 1:10 molar ratio bacteriocin:protease, tris buffer 50 mM pH 8.0, 25 °C, 5 and 24 h, HPLC UV 210 nm
trypsin = biological target: T1, trypsin (Bos taurus, UniProt P00760); conditions: enzyme:substrate ratio 10:1, tris buffer 50 mM pH 8.0, 25 °C, 5 and 24 h, HPLC UV 210 nm
T1 construct: gene PRSS1
T1 sequence (P00760 24-246): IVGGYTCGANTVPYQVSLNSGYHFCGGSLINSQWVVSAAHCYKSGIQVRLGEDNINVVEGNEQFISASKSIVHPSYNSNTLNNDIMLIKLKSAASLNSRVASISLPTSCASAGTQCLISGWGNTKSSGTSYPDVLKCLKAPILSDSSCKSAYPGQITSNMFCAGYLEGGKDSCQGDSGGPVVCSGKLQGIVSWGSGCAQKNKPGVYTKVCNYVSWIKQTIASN

chymotrypsin = chymotrypsin (Bos taurus, UniProt P00766); conditions: enzyme:substrate ratio 1:20 to 10:1, tris buffer 50 mM pH 8.0, 25 °C, 5 and 24 h, HPLC UV 210 nm
proteinase K = proteinase K (Parengyodontium album, UniProt P06873); conditions: 1:10 protease to bacteriocin, 50 mM sodium phosphate pH 7.4, 5 mM CaCl2, 100 mM NaCl, 37 °C, 24 h, HPLC UV 210 nm

Row | Compound | Proteolytic stability of bacteriocin enantiomers (all protease conditions tested) (trypsin or chymotrypsin) | Proteolytic stability on incubation with trypsin (trypsin) | Proteolytic stability on incubation with chymotrypsin (chymotrypsin) | Proteolytic stability on incubation with proteinase K (proteinase K)
1 | CC[C@@H](C)[C@@H](NC(=O)[C@@H](Cc1ccc(O)cc1)NC(=O)[C@@H](CCCCN)NC(=O)[C@@H](CC(C)C)NC(=O)[C@@H](Cc1ccccc1)NC(=O)[C@@H](CC(N)=O)NC(=O)[C@@H](CC(C)C)NC(=O)[C@@H](Cc1c[nH]c2ccccc12)NC(=O)[C@@H](CO)NC(=O)[C@H](N)CCSC)C(=O)N[C@H](C)C(=O)N[C@H](CCCCN)C(=O)N[C@H](Cc1ccc(O)cc1)C(=O)NCC(=O)N[C@H](CCCCN)C(=O)N[C@H](CCCCN)C(=O)N[C@H](C)C(=O)N[C@@H](C(=O)N[C@H](CO)C(=O)N[C@H](C)C(=O)N[C@H](C)C(=O)N[C@H](Cc1c[nH]c2ccccc12)C(=O)N[C@H](CCCCN)C(=O)N[C@H](Cc1ccc(O)cc1)C(=O)N[C@H](CCCCN)C(=O)NCC(=O)N[C@H](CCCCN)C(=O)N[C@@H](C(=O)N[C@H](CC(C)C)C(=O)N[C@H](CCC(=O)O)C(=O)N[C@H](Cc1c[nH]c2ccccc12)C(=O)N[C@H](CC(C)C)C(=O)N[C@H](CC(N)=O)C(=O)N[C@@H](C(=O)NCC(=O)N1CCC[C@@H]1C(=O)N[C@@H](C(=O)N[C@H](CC(C)C)C(=O)N[C@H](CCC(=O)O)C(=O)N[C@H](Cc1c[nH]c2ccccc12)C(=O)N[C@@H](C(=O)N[C@H](Cc1c[nH]c2ccccc12)C(=O)N[C@H](CCC(N)=O)C(=O)N[C@H](CCCCN)C(=O)N[C@H](CC(C)C)C(=O)N[C@H](CCCCN)C(=O)N[C@H](CCCCN)C(=O)N[C@@H](C(=O)N[C@H](C)C(=O)NCC(=O)N[C@H](CC(C)C)C(N)=O)[C@H](C)CC)C(C)C)[C@H](C)O)C(C)C)C(C)C)C(C)C [D-AucA, D-aureocin A53 (Met^1-Leu^51)] | remained intact under all conditions tested |  |  | 
2 | CC[C@@H](C)[C@@H](NC(=O)CNC(=O)[C@@H](CC(C)C)NC(=O)[C@H](NC(=O)[C@@H](CCC(N)=O)NC(=O)[C@@H](CCCCN)NC(=O)[C@H](NC(=O)[C@@H](CCCCN)NC(=O)[C@@H](CO)NC(=O)[C@H](NC(=O)[C@H](NC(=O)[C@@H](Cc1c[nH]c2ccccc12)NC(=O)[C@@H](CC(=O)O)NC(=O)[C@H](NC(=O)[C@@H](C)NC(=O)[C@@H](CCC(N)=O)NC(=O)CNC(=O)[C@@H](C)NC(=O)[C@@H](CC(N)=O)NC(=O)[C@@H](CC(C)C)NC(=O)[C@@H](Cc1c[nH]c2ccccc12)NC(=O)[C@@H](CC(=O)O)NC(=O)[C@@H](CC(C)C)NC(=O)[C@H](NC(=O)[C@@H](CCCCN)NC(=O)CNC(=O)[C@@H](CCCCN)NC(=O)[C@@H](CC(N)=O)NC(=O)[C@@H](C)NC(=O)[C@@H](Cc1c[nH]c2ccccc12)NC(=O)[C@@H](C)NC(=O)[C@@H](Cc1c[nH]c2ccccc12)NC(=O)[C@@H](CCC(N)=O)NC(=O)[C@H](NC(=O)[C@@H](C)NC(=O)[C@@H](CCCCN)NC(=O)[C@@H](CO)NC(=O)CNC(=O)[C@@H](Cc1ccc(O)cc1)NC(=O)[C@@H](CCCCN)NC(=O)[C@@H](C)NC(=O)[C@@H](CC(C)C)NC(=O)[C@@H](CC(C)C)NC(=O)[C@@H](CCC(N)=O)NC(=O)[C@H](NC(=O)[C@H](NC(=O)[C@@H](CCCCN)NC(=O)[C@@H](CC(C)C)NC(=O)[C@@H](Cc1ccccc1)NC(=O)CNC(=O)[C@@H](C)NC(=O)[C@H](N)CCSC)C(C)C)C(C)C)C(C)C)[C@H](C)CC)[C@H](C)CC)C(C)C)C(C)C)[C@H](C)CC)[C@H](C)CC)C(=O)N[C@H](CCCCN)C(N)=O [D-LnqQ, D-lacticin Q (Met^1-Lys^53)] | resistant to proteolytic degradation |  |  | 
3 | CC[C@H](C)[C@H](NC(=O)[C@H](Cc1ccc(O)cc1)NC(=O)[C@H](CCCCN)NC(=O)[C@H](CC(C)C)NC(=O)[C@H](Cc1ccccc1)NC(=O)[C@H](CC(N)=O)NC(=O)[C@H](CC(C)C)NC(=O)[C@H](Cc1c[nH]c2ccccc12)NC(=O)[C@H](CO)NC(=O)[C@@H](N)CCSC)C(=O)N[C@@H](C)C(=O)N[C@@H](CCCCN)C(=O)N[C@@H](Cc1ccc(O)cc1)C(=O)NCC(=O)N[C@@H](CCCCN)C(=O)N[C@@H](CCCCN)C(=O)N[C@@H](C)C(=O)N[C@H](C(=O)N[C@@H](CO)C(=O)N[C@@H](C)C(=O)N[C@@H](C)C(=O)N[C@@H](Cc1c[nH]c2ccccc12)C(=O)N[C@@H](CCCCN)C(=O)N[C@@H](Cc1ccc(O)cc1)C(=O)N[C@@H](CCCCN)C(=O)NCC(=O)N[C@@H](CCCCN)C(=O)N[C@H](C(=O)N[C@@H](CC(C)C)C(=O)N[C@@H](CCC(=O)O)C(=O)N[C@@H](Cc1c[nH]c2ccccc12)C(=O)N[C@@H](CC(C)C)C(=O)N[C@@H](CC(N)=O)C(=O)N[C@H](C(=O)NCC(=O)N1CCC[C@H]1C(=O)N[C@H](C(=O)N[C@@H](CC(C)C)C(=O)N[C@@H](CCC(=O)O)C(=O)N[C@@H](Cc1c[nH]c2ccccc12)C(=O)N[C@H](C(=O)N[C@@H](Cc1c[nH]c2ccccc12)C(=O)N[C@@H](CCC(N)=O)C(=O)N[C@@H](CCCCN)C(=O)N[C@@H](CC(C)C)C(=O)N[C@@H](CCCCN)C(=O)N[C@@H](CCCCN)C(=O)N[C@H](C(=O)N[C@@H](C)C(=O)NCC(=O)N[C@@H](CC(C)C)C(N)=O)[C@@H](C)CC)C(C)C)[C@@H](C)O)C(C)C)C(C)C)C(C)C [L-AucA, L-aureocin A53 (Met^1-Leu^51)] |  | degraded | only caused degradation of L-AucA when the enzyme:substrate ratio increased from 1:20 to 10:1 | proteolytically resistant
4 | CC[C@H](C)[C@H](NC(=O)CNC(=O)[C@H](CC(C)C)NC(=O)[C@@H](NC(=O)[C@H](CCC(N)=O)NC(=O)[C@H](CCCCN)NC(=O)[C@@H](NC(=O)[C@H](CCCCN)NC(=O)[C@H](CO)NC(=O)[C@@H](NC(=O)[C@@H](NC(=O)[C@H](Cc1c[nH]c2ccccc12)NC(=O)[C@H](CC(=O)O)NC(=O)[C@@H](NC(=O)[C@H](C)NC(=O)[C@H](CCC(N)=O)NC(=O)CNC(=O)[C@H](C)NC(=O)[C@H](CC(N)=O)NC(=O)[C@H](CC(C)C)NC(=O)[C@H](Cc1c[nH]c2ccccc12)NC(=O)[C@H](CC(=O)O)NC(=O)[C@H](CC(C)C)NC(=O)[C@@H](NC(=O)[C@H](CCCCN)NC(=O)CNC(=O)[C@H](CCCCN)NC(=O)[C@H](CC(N)=O)NC(=O)[C@H](C)NC(=O)[C@H](Cc1c[nH]c2ccccc12)NC(=O)[C@H](C)NC(=O)[C@H](Cc1c[nH]c2ccccc12)NC(=O)[C@H](CCC(N)=O)NC(=O)[C@@H](NC(=O)[C@H](C)NC(=O)[C@H](CCCCN)NC(=O)[C@H](CO)NC(=O)CNC(=O)[C@H](Cc1ccc(O)cc1)NC(=O)[C@H](CCCCN)NC(=O)[C@H](C)NC(=O)[C@H](CC(C)C)NC(=O)[C@H](CC(C)C)NC(=O)[C@H](CCC(N)=O)NC(=O)[C@@H](NC(=O)[C@@H](NC(=O)[C@H](CCCCN)NC(=O)[C@H](CC(C)C)NC(=O)[C@H](Cc1ccccc1)NC(=O)CNC(=O)[C@H](C)NC(=O)[C@@H](N)CCSC)C(C)C)C(C)C)C(C)C)[C@@H](C)CC)[C@@H](C)CC)C(C)C)C(C)C)[C@@H](C)CC)[C@@H](C)CC)C(=O)N[C@@H](CCCCN)C(N)=O [L-LnqQ, L-lacticin Q (Met^1-Lys^53)] | more sensitive to proteolytic degradation |  |  | 
5 | CC[C@H](C)[C@H](NC(=O)[C@H](Cc1ccc(O)cc1)NC(=O)[C@H](CCCCN)NC(=O)[C@H](CC(C)C)NC(=O)[C@H](Cc1ccccc1)NC(=O)[C@H](CC(N)=O)NC(=O)[C@H](CC(C)C)NC(=O)[C@H](Cc1c[nH]c2ccccc12)NC(=O)[C@H](CO)NC(=O)[C@@H](N)CCSC)C(=O)N[C@@H](C)C(=O)N[C@@H](CCCCN)C(=O)N[C@@H](Cc1ccc(O)cc1)C(=O)NCC(=O)N[C@@H](CCCCN)C(=O)N[C@@H](CCCCN)C(=O)N[C@@H](C)C(=O)N[C@H](C(=O)N[C@@H](CO)C(=O)N[C@@H](C)C(=O)N[C@@H](C)C(=O)N[C@@H](CC(C)C)C(=O)N[C@@H](CCCCN)C(=O)N[C@@H](Cc1ccc(O)cc1)C(=O)N[C@@H](CCCCN)C(=O)NCC(=O)N[C@@H](CCCCN)C(=O)N[C@H](C(=O)N[C@@H](CC(C)C)C(=O)N[C@@H](CCC(=O)O)C(=O)N[C@@H](Cc1c[nH]c2ccccc12)C(=O)N[C@@H](CC(C)C)C(=O)N[C@@H](CC(N)=O)C(=O)N[C@H](C(=O)NCC(=O)N1CCC[C@H]1C(=O)N[C@H](C(=O)N[C@@H](CC(C)C)C(=O)N[C@@H](CCC(=O)O)C(=O)N[C@@H](Cc1c[nH]c2ccccc12)C(=O)N[C@H](C(=O)N[C@@H](Cc1c[nH]c2ccccc12)C(=O)N[C@@H](CCC(N)=O)C(=O)N[C@@H](CCCCN)C(=O)N[C@@H](CC(C)C)C(=O)N[C@@H](CCCCN)C(=O)N[C@@H](CCCCN)C(=O)N[C@H](C(=O)N[C@@H](C)C(=O)NCC(=O)N[C@@H](CC(C)C)C(N)=O)[C@@H](C)CC)C(C)C)[C@@H](C)O)C(C)C)C(C)C)C(C)C [L-W22L, L-aureocin A53 W22L (Met^1-Leu^51)] |  |  |  | fully digested
